Amino acid sequences for entries named in this document (tags omitted). Residues count along the entry.
UniProt Q13976, whole entry, stated change not applied: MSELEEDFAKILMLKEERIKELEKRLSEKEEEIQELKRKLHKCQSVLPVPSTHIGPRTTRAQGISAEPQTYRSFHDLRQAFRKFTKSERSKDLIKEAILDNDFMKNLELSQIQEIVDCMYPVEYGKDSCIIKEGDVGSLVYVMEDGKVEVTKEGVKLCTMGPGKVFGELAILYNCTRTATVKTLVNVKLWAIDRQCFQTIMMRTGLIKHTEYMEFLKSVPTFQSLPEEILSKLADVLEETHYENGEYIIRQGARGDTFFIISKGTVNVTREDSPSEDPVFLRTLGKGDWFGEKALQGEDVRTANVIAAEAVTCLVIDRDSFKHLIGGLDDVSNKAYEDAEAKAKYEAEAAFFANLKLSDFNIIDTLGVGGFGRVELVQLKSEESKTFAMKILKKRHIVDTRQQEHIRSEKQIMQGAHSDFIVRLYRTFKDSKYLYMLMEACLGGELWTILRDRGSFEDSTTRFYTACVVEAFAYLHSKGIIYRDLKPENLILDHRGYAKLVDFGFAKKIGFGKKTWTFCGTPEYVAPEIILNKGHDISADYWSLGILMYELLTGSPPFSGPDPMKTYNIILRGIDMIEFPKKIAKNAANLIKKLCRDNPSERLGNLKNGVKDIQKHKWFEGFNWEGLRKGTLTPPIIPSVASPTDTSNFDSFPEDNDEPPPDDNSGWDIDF
UniProt P16591, whole entry, stated change not applied: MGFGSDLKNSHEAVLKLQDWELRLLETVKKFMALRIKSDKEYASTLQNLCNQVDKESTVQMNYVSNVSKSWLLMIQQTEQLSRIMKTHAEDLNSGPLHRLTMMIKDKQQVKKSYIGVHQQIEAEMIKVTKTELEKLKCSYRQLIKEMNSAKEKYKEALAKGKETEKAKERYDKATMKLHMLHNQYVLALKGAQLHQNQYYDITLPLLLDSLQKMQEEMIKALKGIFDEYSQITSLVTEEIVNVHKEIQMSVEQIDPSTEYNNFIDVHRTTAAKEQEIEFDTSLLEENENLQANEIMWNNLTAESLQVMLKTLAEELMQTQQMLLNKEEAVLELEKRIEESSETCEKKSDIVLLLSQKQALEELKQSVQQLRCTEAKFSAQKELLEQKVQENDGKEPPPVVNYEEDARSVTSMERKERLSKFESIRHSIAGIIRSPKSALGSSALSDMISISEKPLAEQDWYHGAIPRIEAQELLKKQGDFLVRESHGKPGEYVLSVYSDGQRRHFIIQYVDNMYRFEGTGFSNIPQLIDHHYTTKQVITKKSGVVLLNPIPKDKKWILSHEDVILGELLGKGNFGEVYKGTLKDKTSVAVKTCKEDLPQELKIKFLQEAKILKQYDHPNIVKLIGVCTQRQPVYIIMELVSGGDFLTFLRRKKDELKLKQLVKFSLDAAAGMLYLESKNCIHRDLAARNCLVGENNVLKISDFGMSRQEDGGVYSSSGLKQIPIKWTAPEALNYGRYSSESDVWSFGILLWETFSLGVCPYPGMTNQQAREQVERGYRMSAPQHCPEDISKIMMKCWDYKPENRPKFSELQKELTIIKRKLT
UniProt P33981, whole entry, stated change not applied: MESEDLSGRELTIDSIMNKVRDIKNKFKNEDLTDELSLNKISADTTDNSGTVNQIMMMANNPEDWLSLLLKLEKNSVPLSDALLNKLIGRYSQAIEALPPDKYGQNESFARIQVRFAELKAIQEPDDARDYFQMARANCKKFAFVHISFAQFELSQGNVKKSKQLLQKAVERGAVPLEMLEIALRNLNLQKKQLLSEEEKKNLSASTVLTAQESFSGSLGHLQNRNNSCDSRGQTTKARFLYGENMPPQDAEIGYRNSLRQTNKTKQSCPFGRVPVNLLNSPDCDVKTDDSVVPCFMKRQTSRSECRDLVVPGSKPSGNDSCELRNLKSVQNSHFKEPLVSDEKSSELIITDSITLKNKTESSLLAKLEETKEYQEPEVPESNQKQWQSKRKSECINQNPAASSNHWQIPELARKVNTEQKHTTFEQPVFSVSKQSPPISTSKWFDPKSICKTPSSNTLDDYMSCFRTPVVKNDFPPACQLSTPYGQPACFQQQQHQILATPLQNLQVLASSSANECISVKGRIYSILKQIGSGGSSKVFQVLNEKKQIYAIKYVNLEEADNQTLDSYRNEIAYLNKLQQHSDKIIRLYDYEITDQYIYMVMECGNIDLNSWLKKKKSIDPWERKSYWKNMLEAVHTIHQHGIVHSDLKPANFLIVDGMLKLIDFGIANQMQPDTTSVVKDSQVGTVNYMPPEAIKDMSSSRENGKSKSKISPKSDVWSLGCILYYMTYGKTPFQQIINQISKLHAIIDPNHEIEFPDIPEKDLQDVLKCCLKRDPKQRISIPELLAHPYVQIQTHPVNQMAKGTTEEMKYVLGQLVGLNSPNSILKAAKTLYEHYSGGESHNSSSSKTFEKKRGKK
UniProt P49137, whole entry, stated change not applied: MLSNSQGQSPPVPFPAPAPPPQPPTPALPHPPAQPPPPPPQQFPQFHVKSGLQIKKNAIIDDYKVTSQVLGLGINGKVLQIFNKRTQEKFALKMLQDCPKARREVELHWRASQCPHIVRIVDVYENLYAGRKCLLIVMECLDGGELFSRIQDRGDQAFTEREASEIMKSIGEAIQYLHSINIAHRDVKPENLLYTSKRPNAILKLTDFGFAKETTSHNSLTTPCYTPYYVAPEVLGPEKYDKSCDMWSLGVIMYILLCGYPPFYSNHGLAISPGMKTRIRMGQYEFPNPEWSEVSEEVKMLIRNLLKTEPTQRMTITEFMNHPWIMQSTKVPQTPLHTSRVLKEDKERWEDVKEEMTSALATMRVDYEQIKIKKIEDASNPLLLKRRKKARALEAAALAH
UniProt Q15375, 28-998, stated change not applied: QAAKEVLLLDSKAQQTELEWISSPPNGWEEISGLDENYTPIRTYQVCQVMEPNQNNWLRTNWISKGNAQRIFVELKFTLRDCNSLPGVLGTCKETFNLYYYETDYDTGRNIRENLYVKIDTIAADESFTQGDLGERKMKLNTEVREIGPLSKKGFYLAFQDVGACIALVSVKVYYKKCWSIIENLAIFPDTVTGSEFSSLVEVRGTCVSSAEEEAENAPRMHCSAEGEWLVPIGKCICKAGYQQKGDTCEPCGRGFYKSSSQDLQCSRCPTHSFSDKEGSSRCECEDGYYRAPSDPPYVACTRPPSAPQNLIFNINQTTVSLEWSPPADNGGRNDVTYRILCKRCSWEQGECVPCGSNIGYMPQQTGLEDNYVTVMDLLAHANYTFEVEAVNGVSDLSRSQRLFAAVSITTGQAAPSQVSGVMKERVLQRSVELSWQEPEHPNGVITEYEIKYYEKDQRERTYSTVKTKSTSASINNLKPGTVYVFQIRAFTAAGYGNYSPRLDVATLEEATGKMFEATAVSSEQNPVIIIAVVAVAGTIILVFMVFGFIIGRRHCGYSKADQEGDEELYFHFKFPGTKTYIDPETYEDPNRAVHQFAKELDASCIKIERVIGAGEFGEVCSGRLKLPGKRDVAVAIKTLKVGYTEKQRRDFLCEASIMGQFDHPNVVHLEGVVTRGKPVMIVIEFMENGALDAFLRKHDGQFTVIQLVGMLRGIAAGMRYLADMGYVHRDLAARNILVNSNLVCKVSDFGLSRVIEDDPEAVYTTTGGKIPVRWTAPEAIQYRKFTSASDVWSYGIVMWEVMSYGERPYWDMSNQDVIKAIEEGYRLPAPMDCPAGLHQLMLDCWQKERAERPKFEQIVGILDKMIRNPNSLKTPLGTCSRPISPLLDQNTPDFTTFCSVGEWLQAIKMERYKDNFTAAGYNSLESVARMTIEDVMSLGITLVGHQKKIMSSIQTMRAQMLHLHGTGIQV
UniProt Q8TDC3, whole entry, stated change not applied: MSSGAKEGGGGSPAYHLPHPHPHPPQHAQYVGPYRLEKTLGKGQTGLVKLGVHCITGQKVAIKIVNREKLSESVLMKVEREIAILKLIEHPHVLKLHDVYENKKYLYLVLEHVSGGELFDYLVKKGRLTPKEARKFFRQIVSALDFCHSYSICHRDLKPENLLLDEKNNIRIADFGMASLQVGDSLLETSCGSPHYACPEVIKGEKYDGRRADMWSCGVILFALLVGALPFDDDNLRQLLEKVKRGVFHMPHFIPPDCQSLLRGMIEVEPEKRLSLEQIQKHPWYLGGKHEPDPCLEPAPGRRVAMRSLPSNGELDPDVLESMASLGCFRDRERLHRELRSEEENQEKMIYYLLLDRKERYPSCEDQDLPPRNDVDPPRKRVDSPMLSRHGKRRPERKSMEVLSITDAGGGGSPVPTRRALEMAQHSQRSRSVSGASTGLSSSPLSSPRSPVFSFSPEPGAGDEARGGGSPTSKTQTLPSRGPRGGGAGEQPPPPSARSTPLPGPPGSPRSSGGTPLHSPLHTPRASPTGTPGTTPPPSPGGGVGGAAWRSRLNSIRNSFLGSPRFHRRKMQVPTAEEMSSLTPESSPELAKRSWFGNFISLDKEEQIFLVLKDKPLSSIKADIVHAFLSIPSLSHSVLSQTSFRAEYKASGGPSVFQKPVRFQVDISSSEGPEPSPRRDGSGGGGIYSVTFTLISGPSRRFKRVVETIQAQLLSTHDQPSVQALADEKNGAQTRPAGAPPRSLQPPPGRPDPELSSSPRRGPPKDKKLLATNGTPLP
UniProt Q92630, whole entry, stated change not applied: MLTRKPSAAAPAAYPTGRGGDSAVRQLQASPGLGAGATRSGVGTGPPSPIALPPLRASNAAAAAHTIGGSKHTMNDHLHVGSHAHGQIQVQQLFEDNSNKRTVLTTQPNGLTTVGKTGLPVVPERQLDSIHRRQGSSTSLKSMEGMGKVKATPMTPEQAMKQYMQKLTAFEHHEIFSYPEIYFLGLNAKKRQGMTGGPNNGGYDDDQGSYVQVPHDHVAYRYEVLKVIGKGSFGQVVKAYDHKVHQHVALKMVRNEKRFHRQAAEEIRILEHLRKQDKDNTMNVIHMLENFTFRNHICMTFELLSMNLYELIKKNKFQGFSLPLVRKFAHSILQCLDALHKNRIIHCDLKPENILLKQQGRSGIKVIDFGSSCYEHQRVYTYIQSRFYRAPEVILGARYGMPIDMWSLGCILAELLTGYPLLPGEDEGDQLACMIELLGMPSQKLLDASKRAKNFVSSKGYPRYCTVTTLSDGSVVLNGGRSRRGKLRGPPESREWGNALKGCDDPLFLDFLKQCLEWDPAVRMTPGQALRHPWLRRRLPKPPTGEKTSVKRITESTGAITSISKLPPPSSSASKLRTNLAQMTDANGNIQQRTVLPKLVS
UniProt Q9NQU5, whole entry, stated change not applied: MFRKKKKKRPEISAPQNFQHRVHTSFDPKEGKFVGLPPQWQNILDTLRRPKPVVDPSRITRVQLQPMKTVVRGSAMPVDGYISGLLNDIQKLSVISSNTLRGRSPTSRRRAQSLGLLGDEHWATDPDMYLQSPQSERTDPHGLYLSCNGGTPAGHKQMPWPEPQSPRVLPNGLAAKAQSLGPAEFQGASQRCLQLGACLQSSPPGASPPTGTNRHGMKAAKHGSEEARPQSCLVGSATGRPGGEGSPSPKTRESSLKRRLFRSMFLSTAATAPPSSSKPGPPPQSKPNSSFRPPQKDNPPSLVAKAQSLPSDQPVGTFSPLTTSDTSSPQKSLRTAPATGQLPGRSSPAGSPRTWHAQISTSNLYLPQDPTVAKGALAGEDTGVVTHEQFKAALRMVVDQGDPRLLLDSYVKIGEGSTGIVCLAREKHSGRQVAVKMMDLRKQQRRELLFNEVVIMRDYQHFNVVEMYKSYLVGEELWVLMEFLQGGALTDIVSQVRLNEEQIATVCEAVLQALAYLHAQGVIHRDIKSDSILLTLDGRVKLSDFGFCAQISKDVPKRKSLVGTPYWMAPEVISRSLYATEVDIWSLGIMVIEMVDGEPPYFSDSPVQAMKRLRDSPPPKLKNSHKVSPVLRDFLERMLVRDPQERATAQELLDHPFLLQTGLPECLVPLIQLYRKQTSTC
UniProt Q9UBS0, whole entry, stated change not applied: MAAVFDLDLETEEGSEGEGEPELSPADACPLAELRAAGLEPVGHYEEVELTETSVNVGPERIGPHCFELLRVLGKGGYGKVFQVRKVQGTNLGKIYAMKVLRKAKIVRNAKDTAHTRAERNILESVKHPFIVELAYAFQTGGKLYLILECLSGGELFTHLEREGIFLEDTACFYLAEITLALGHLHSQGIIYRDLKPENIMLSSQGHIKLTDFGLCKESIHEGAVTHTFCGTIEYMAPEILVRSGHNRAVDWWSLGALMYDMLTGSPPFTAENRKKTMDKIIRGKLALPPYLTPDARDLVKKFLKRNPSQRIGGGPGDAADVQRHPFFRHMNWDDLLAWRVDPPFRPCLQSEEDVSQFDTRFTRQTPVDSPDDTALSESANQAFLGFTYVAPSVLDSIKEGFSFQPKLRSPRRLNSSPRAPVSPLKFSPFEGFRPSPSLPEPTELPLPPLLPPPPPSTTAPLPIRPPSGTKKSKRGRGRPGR

In PMC3961306, “Comparison of the Cancer Gene Targeting and Biochemical Selectivities of All Targeted Kinase Inhibitors Approved for Clinical Use” (PLoS ONE, 2014):

Tests used:
Test in all cases: Kinase profiling in a biochemical assay panel (mobility shift assays and ELISA), %-inhibition at 1 μM; selectivity entropy
[1] = biological target: panel of more than 300 wild-type and mutant kinases (313 kinase panel) (Homo sapiens, UniProt P04626)
[2] = biological target: panel of more than 300 wild-type and mutant kinases (313 kinase panel) (Homo sapiens, UniProt P42336)
[3] = biological target: panel of more than 300 wild-type and mutant kinases (313 kinase panel) (Homo sapiens, UniProt Q13976)
[4] = biological target: panel of more than 300 wild-type and mutant kinases (313 kinase panel) (Homo sapiens, UniProt O14578); conditions: 1 µM
[5] = biological target: panel of more than 300 wild-type and mutant kinases (313 kinase panel) (Homo sapiens, UniProt O96017); conditions: 1 µM
[6] = biological target: panel of more than 300 wild-type and mutant kinases (313 kinase panel) (Homo sapiens, UniProt P04049); conditions: 1 µM
[7] = biological target: panel of more than 300 wild-type and mutant kinases (313 kinase panel) (Homo sapiens, UniProt P16234, T674I); conditions: 1 µM
[8] = biological target: panel of more than 300 wild-type and mutant kinases (313 kinase panel) (Homo sapiens, UniProt P16591); conditions: 1 µM
[9] = biological target: panel of more than 300 wild-type and mutant kinases (313 kinase panel) (Homo sapiens, UniProt P29323); conditions: 1 µM
[10] = biological target: panel of more than 300 wild-type and mutant kinases (313 kinase panel) (Homo sapiens, UniProt P33981); conditions: 1 µM
[11] = biological target: panel of more than 300 wild-type and mutant kinases (313 kinase panel) (Homo sapiens, UniProt P42680); conditions: 1 µM
[12] = biological target: panel of more than 300 wild-type and mutant kinases (313 kinase panel) (Homo sapiens, UniProt P49137); conditions: 1 µM
[13] = biological target: panel of more than 300 wild-type and mutant kinases (313 kinase panel) (Homo sapiens, UniProt P53667); conditions: 1 µM
[14] = biological target: panel of more than 300 wild-type and mutant kinases (313 kinase panel) (Homo sapiens, UniProt Q14164); conditions: 1 µM
[15] = biological target: panel of more than 300 wild-type and mutant kinases (313 kinase panel) (Homo sapiens, UniProt Q15375); conditions: 1 µM
[16] = biological target: panel of more than 300 wild-type and mutant kinases (313 kinase panel) (Homo sapiens, UniProt Q5VT25); conditions: 1 µM
[17] = biological target: panel of more than 300 wild-type and mutant kinases (313 kinase panel) (Homo sapiens, UniProt Q8TDC3); conditions: 1 µM
[18] = biological target: panel of more than 300 wild-type and mutant kinases (313 kinase panel) (Homo sapiens, UniProt Q92630); conditions: 1 µM
[19] = biological target: panel of more than 300 wild-type and mutant kinases (313 kinase panel) (Homo sapiens, UniProt Q99683); conditions: 1 µM
[20] = biological target: panel of more than 300 wild-type and mutant kinases (313 kinase panel) (Homo sapiens, UniProt Q9HBY8); conditions: 1 µM
[21] = biological target: panel of more than 300 wild-type and mutant kinases (313 kinase panel) (Homo sapiens, UniProt Q9NQU5); conditions: 1 µM
[22] = biological target: panel of more than 300 wild-type and mutant kinases (313 kinase panel) (Homo sapiens, UniProt Q9UBS0)
[23] = biological target: panel of more than 300 wild-type and mutant kinases (313 kinase panel) (Homo sapiens, UniProt Q9Y6M4); conditions: 1 µM

SMILES	%-inhibition of CRIK [4] [%]	%-inhibition, CHK2 [5] [%]	%-inhibition of RAF1 [6] [%]	%-inhibition of PDGFRα(T674I) [7] [%]	%-inhibition of FER [8] [%]	%-inhibition of EPHB2 [9] [%]	%-inhibition of TTK [10] [%]	%-inhibition of TEC [11] [%]	%-inhibition of MAPKAPK2 [12] [%]	%-inhibition of LIMK1 [13] [%]	%-inhibition of IKKε [14] [%]	%-inhibition of EPHA7 [15] [%]	%-inhibition of MRCKα [16] [%]	%-inhibition, BRSK1 [17] [%]	%-inhibition of DYRK2 [18] [%]	%-inhibition of MAP3K5 [19] [%]	%-inhibition of SGK2 [20] [%]	%-inhibition of PAK6 [21] [%]	%-inhibition, CK1γ3 [23] [%]	further results
CNC(=O)c1ccccc1Sc1ccc2c(/C=C/c3ccccn3)n[nH]c2c1 [axitinib]	–	–	–	–	–	–	–	–	–	–	–	–	–	–	–	–	–	–	–	%-inhibition of HER2 ([1]; kinase HER2, compound at 1 μM): -5%; %-inhibition of PIK3CA/PIK3R1 ([2]; kinase PIK3CA/PIK3R1, 1 μM): 17%; %-inhibition of PGK ([3]; kinase PGK, 1 μM): -3.22%
COc1cc2ncnc(Nc3ccc(F)c(Cl)c3)c2cc1OCCCN1CCOCC1 [gefitinib]	26	27	2.31	79	6	46	19	27	4	-3.69	4	49	1.4	10	29	3.27	6.52	3	-2.3	%-inhibition of p70S6Kβ ([22]; kinase p70S6Kβ, 1 μM): 9%
C[C@@H]1CCN(C(=O)CC#N)C[C@@H]1N(C)c1ncnc2[nH]ccc12 [tofacitinib]	-11	7	10	25	3.58	-3	2.19	-2.48	-17	6	-5.49	-2	-0.575	-2.57	-8.56	3.37	-0.178	-3	1.75	%-inhibition of HER2 ([1]; 1 µM): -0.179%; %-inhibition of PIK3CA/PIK3R1 ([2]; 1 µM): 34%; %-inhibition of PGK ([3]; 1 µM): 4%; %-inhibition of p70S6Kβ ([22]; 1 µM): 0.235%
